# Experimental data reported in patent US11828750B2, “Material for screening for compound acting on ION channel and use thereof” (PUBLIC UNIVERSITY CORPORATION NAGOYA CITY UNIVERSITY, priority 2016, dated 2023).
# Sequences of proteins named here, by UniProt entry; tags and fusion partners are left off.
# UniProt Q9NPC2, whole entry: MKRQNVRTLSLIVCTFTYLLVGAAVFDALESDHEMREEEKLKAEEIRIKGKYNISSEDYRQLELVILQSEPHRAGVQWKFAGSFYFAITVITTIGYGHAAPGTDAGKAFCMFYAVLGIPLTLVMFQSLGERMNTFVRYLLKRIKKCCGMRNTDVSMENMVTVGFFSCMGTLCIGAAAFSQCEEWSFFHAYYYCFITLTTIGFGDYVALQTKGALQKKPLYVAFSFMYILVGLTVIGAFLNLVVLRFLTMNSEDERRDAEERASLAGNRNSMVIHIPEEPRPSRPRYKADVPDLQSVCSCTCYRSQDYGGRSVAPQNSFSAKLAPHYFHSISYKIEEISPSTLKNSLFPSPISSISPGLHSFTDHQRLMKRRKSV
# Like-named read-outs stand apart in the source and are kept apart here.
# Columns and labels:
# hTASK-1 = assay: Cell death assay in TASK-1 test cells (hTASK-1 transiently expressing Kir 2.1#mutated Nav cells); assay type: cell-based, human
# Experimental: (§1) With the TREK-1 test cells, the culture medium was replaced with measurement buffer (137 mM NaCl, 5.9 mM KCl, 2.2 mM CaCl2, 1.2 mM MgCl2, 14 mM glucose, 10 mM HEPES (pH 7.4 with NaOH), this also applies in the following) and BaCl2 was added to provide 200 μM Ba ion, a Kir 2.1 inhibitor. This was followed by incubation for approximately 12 hours under conditions of 37° C., atmospheric pressure, and 5% CO2 and monitoring of cell death. Cell death was observed when 8-Br-cAMP, a TREK-1 inhibitor, was supplied. The measurement of cell death was carried out using the MTT method with reference to a paper by the present inventors (Yamazaki, D., et al., Am J Physiol Cell Physiol 300, C75-86, 2011). […]
# TASK-3 [1] = target: T1, TASK-3 (Homo sapiens, UniProt Q9NPC2); assay: Cell death assay in TASK-3 test cells (hTASK-3 transiently expressing Kir 2.1#mutated Nav cells); assay type: cell-based
# Experimental: as §1
# TASK-3 [2] = target: T1, TASK-3; details: read-out: literature / reported IC50 for TASK-3; literature value (Coburn et al. 2012; Zou et al. 2010); cited from earlier work
# [3] = in the presence of 200 μM Ba ion
# [4] = read-out: IC50 value (induction of cell death), in the presence of 200 μM Ba ion
smiles,measurement,setting,value
CCCC(=O)C1CCN(c2ncnc3c2CN(C(=O)c2ccc(-c4ccccc4)cc2)CC3)CC1,induction of cell death by inhibitor,hTASK-1; [3],induction of cell death in a dose-dependent regime was observed
same,IC50,hTASK-1; [4],2.36 nM
same,induction of cell death by inhibitor,TASK-3 [1]; [3],induction of cell death in a dose-dependent regime was observed
same,IC50,TASK-3 [1]; [4],34.7 nM
same,IC50,TASK-3 [2],35 nM
